Assay results: patent US10155727B2, “Pyrazoles” (Janssen Pharmaceuticals, Inc., priority 2014, dated 2018)

Amino acid sequences for entries named in this document (tags omitted). A change or cut given only in a name is not applied to a line headed by its entry. Residues count along the entry.
UniProt Q12809: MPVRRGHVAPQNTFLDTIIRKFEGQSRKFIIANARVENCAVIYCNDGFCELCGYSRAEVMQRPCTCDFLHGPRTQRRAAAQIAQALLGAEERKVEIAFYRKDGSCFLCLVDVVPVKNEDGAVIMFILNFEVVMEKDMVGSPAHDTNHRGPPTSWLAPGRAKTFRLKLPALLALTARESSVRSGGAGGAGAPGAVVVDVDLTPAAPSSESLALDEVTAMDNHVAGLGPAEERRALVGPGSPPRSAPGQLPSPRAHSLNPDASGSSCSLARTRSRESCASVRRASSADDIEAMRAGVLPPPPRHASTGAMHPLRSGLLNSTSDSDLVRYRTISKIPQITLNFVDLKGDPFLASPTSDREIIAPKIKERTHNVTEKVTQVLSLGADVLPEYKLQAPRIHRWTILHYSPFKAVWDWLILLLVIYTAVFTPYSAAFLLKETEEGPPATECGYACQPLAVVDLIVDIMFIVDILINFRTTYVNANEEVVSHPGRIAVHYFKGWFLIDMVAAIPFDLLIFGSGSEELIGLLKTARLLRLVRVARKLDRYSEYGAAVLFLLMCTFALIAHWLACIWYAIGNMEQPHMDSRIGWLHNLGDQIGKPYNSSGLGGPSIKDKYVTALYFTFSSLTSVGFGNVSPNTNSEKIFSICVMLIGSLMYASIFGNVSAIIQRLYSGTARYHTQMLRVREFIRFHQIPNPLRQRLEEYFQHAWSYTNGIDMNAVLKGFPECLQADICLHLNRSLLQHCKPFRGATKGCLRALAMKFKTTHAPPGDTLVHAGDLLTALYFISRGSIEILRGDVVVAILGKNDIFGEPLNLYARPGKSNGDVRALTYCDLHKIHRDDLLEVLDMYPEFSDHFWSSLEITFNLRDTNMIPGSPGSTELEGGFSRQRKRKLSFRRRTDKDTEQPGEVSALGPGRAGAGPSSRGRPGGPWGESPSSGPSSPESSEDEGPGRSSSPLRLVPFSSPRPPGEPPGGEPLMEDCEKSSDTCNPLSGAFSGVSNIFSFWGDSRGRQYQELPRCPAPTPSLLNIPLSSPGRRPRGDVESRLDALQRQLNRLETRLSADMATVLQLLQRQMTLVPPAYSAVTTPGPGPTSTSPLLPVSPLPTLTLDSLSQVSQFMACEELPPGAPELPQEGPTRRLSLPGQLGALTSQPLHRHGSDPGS
UniProt Q00960, 27-1482: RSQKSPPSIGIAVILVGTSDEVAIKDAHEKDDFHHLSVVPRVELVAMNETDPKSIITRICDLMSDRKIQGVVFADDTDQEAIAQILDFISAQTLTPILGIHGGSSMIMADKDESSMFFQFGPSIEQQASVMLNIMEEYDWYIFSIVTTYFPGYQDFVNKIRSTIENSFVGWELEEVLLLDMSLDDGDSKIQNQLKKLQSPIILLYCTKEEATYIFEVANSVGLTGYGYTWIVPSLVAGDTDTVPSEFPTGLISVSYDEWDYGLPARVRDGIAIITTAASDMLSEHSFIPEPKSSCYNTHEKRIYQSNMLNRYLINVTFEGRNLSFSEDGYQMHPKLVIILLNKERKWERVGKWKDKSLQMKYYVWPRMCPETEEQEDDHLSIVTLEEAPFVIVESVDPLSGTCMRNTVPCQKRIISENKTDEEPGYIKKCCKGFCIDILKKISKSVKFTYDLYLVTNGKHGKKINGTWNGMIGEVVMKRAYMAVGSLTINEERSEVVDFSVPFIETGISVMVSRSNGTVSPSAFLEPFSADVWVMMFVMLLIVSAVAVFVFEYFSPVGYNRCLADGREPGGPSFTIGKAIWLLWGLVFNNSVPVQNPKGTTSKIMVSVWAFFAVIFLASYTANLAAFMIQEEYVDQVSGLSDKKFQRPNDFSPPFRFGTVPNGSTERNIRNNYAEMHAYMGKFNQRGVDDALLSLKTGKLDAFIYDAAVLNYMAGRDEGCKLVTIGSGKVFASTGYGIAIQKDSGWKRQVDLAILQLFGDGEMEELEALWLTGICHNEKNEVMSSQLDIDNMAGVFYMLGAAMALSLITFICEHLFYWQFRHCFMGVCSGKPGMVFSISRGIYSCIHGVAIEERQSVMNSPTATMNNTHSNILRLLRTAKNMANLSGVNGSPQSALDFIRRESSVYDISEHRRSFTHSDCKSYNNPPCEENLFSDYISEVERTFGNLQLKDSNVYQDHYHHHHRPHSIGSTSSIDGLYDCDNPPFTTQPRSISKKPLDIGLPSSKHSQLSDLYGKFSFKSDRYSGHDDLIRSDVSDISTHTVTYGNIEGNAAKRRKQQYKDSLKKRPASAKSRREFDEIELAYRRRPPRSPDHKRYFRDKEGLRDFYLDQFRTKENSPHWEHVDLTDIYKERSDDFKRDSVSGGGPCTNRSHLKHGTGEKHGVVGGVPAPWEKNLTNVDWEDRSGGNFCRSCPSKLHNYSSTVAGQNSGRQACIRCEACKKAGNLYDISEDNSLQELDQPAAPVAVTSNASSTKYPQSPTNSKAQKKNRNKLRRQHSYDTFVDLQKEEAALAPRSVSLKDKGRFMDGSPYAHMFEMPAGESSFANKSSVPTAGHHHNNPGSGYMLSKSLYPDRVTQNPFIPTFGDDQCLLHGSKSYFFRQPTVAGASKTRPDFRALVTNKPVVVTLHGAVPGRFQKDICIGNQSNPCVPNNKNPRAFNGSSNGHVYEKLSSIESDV

Experiments:
[1] = molecular target: hERG receptor (Homo sapiens (Human), UniProt Q12809); experiment: HERGBD: inhibition of specific [3H]-Dofetilide binding to the hERG receptor
Method: Inhibition of Specific Binding to the hERG—Receptor (HERGBD)
A HEK cell line with stable transfected human ERG receptor was used for the assay. The cells were grown adherently and maintained in DULBECCOS' MEM medium with 10% FBS, 1% non-essential amino acids, 1% Penicillin/Streptomycin and 400 μg/ml G418 (Calbiochem).
For binding assays and membrane preparations the cell culture medium was removed, cells were washed with PBS. Crude membranes for radioligand binding experiments were prepared by scraping the cells off the dishes in ice cold 20 mM HEPES/0.1 mM KCl/pH 7.2. The cell suspension was homogenized on ice (Ultra turrax, 3×20 sec.) and the homogenate was spun for 10 min (1° C., 1000 g, OPTIMA, SW28, 2800 U/min). The supernatant was than centrifuged for 40 min at 100000 g (1° C., OPTIMA, SW28, 23000 U/min). The membrane pellet was re-suspended in 20 mM HEPES/0.1 mM KCl pH 7.2, frozen and stored at −80° C.
After thawing on the day of the assay, the membrane suspension was diluted further with 20 mM HEPES/0.1 mM KCl/pH 7.2.
The incubation mixture of 200 μl contained 1.5 nmol/l 3H-Dofetilide, optimized amount of membrane preparation, 20 mM HEPES/0.1 mM KCl/(pH 7.2) and inhibitor in 1% DMSO. Nonspecific binding was estimated in the presence of […] Dofetilide. The samples were incubated for 90 min. at RT.
Binding was terminated by filtration of the incubated membrane preparations using Filtermat B (Pharmacia, Uppsala Sweden) and a Micro Cell Harvester (Skatron, Lier, Norway). The Filtermat B had been presoaked with 1% polyethylen imine and carefully washed with 0.05 M Tris/HCl-buffer pH=7.7 after the filtration to separate free and bound radioactivity. The filters were counted in a scintillation counter (Betaplate 1205, Berthold, Wildbad, Germany) in order to determine the specific binding of [^3H]-Dofetilide.
The optimal amount of membrane preparation in the assay was determined and optimized for each membrane preparation separately in front of using the membranes in compound testing.
For pipetting of the incubation mixture we routinely use the robot Biomek2000 (Fa. Beckman).

[2] = molecular target: rat NR1/NR2B receptor (Rattus norvegicus (Rat), UniProt P35439+Q00960); experiment: NR2B binding assay: inhibition of specific [3H]-Ifenprodil binding to the rat NR1/NR2B receptor; conditions: rat brain membranes
Method: Biological Assays Inhibition of Specific Binding to the Rat NR1/NR2B Receptor
Male Wistar rats (180 to 200 g) were killed by suffocation in a CO2 chamber for two minutes. Whole brains without cerebellum were removed and dissected on ice, placed into closed vials and stored at −70° C.
Membrane fractions were prepared and tested using standard techniques. At the time of the assay, 1 g of the brains was placed into 25 ml of 50 mM Tris/10 mM EDTA buffer, pH 7.1, (25 vol. per g of original tissue) and homogenized for 30 sec at 20000 rpm with an Ultraturrax T25 (Jahnke & Kunkel, IKA-Labortechnik, Staufen, Germany).
The supernatant was discarded and the pellet was homogenized on ice for 30 sec at 20000 rpm with an Ultraturrax and again centrifuged at 48000 g for 30 minutes at 4° C. […]
The incubation was terminated by filtration of the membrane preparations using Filtermat B (Pharmacia, Uppsala Sweden) and a Micro Cell Harvester (Skatron, Lier, Norway). The Filtermat B had been presoaked with 1% polyethylene imine and carefully washed with 50 mM Tris/HCl-buffer pH 7.7 after the filtration to separate free and bound radioactivity.
The optimal amount of membrane preparation in the assay was determined and optimized for each membrane preparation separately before the test. […]

[3] = [3H]-Dofetilide binding, membranes of HEK cells with human ERG receptor, read-out: IC50

| SMILES | pIC50 [1, 3] | pIC50 [2] | pIC50 [1] |
| --- | --- | --- | --- |
| Cc1n[nH]c(C)c1CCn1cc(-c2ccc(Cl)c(OC(F)F)c2)cn1 [Example 1, 4-[2-[4-[4-chloro-3-(difluoromethoxy)phenyl]pyrazol-1-yl]ethyl]-3,5-dimethyl-1H-pyrazole] | 4.89 | – | – |
| FC(F)Oc1cc(-c2cnn(Cc3cc[nH]n3)c2)ccc1Cl [Example 6] | – | 8.28 | 5.02 |
| Cc1cc(Cn2cc(-c3cccc(OC(F)(F)F)c3)cn2)n(C)n1 [Example 22, 1,3-dimethyl-5-[[4-[3-(trifluoromethoxy)phenyl]pyrazol-1-yl]methyl] pyrazole Succinate] | – | – | 4.65 |
| Cc1n[nH]c(C)c1CCn1cc(-c2ccc(Cl)c(C(F)F)c2)cn1 [Example 27, 4-[2-[4-[4-Chloro-3-(difluoromethyl)phenyl]pyrazol-1-yl]ethyl]-3,5-dimethyl-1H-pyrazole] | – | – | 4.45 |
| FC(F)c1cc(Cl)cc(-c2cnn(Cc3cc[nH]n3)c2)c1 [Example 28, 4-[3-chloro-5-(difluoromethyl)phenyl]-1-(1H-pyrazol-3-ylmethyl)pyrazole] | 4.26 | – | – |
| Cc1cc(Cn2cc(-c3ccc(Cl)c(C)c3)cn2)n(C)n1 [Example 57, 5-[[4-(4-chloro-3-methyl-phenyl)pyrazol-1-yl]methyl]-1,3-dimethyl-pyrazole Succinate] | – | – | 3.90 |
| Cc1cc(Cn2cc(-c3ccc(Cl)cc3Cl)cn2)n(C)n1 [Example 65, 5-[[4-(2,4-dichlorophenyl)pyrazol-1-yl]methyl]-1,3-dimethyl-pyrazole] | – | – | 4.39 |
| CCn1cncc1Cn1cc(-c2ccc(F)c(C)c2)cn1 [Example 96, 4-(4-fluoro-3-methylphenyl)-1-((1-ethyl-1H-imidazol-5-yl)methyl)-1H-pyrazole] | – | – | 5.10 |

pIC50: −log10 of the molar value. Where two headings read alike, the source gives them in different places.
